Article PMC6271006, “Monoamine Oxidase Inhibitory Constituents of Propolis: Kinetics and Mechanism of Inhibition of Recombinant Human MAO-A and MAO-B” (Molecules, 2014)

The chains behind the UniProt entries cited, without tags or fusion partners.
UniProt P21397, whole entry: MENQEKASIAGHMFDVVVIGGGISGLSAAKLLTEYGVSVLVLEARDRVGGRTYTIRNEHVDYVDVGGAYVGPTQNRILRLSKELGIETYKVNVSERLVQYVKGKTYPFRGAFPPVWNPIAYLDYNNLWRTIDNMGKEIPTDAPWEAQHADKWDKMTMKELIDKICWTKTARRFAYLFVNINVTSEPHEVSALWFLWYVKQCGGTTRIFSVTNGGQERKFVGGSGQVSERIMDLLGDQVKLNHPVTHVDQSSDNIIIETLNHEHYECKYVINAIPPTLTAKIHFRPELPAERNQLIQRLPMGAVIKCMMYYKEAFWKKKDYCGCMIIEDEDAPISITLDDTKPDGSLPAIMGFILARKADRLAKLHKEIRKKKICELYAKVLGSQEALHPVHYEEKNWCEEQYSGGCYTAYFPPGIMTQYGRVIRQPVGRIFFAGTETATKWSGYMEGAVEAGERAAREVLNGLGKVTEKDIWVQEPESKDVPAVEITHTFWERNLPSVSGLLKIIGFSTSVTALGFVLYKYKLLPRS

Biological target: T1, recombinant human MAO-A (Homo sapiens, UniProt P21397)
T1 construct: purchased BD Biosciences (Bedford, MA, USA)
Assay: Enzyme kinetics / inhibition mechanism, MAO-A (Ki, Lineweaver-Burk)
Format: biochemical

C#CCN(C)CCCOc1ccc(Cl)cc1Cl [Clorgyline, clorgyline, reference compound]
Monoamine Oxidase-A Type of Inhibition: Mixed/Irreversible
